# Yeast mating assay 1: variants of the scFv Ab-14

Data: MIT Lincoln Laboratory AlphaSeq set, Engelhart et al. 2022, doi:10.1038/s41597-022-01779-4, as distributed in FLAb.

Target peptide (SARS-CoV-2 spike, HR2 region): PDVDLGDISGINAS

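The starting antibody came from a phage panning campaign against this peptide. AAYL50 was designed without a model: most single CDR substitutions and a random sample of double and triple ones. AlphaSeq pools MATa yeast showing the antibodies with MATalpha yeast showing the peptide. Pairs that bind mate more often; barcode pairs of the diploids are counted by sequencing. Read counts were normalised to the haploid input and turned into Kd by a linear fit to BCL2-family pairs of known affinity, for each replicate. Mating was done three times.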

Each scFv is VH, the linker GGGGSGGGGSGGGGS, VL, as in the parent Ab-14, and differs from it in the CDRs of the light chain only.
VH: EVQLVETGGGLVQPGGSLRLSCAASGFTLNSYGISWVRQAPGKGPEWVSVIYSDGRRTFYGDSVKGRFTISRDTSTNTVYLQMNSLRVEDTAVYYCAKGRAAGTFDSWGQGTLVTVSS
VL: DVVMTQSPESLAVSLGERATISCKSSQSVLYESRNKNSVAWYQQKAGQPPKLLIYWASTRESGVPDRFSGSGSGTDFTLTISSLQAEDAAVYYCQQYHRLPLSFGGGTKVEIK

Changes read parent residue, position, new residue, counted from the first residue of the VL shown. Affinities are written as log10 Kd with Kd in nM; a lower number is a better binder. The mean shown is taken over the replicates in which the pair was detected. "no signal" means that the variant was in the library but no mating with the target was seen in any replicate; the authors take this as a sign of poor binding, and no number exists.

changes	mean, log10 nM	seen in
Y31C/E61Q/S103V	2.15	3 of 3
L30R/S33T/W56T	1.58	3 of 3
Q27S/Y31G/Y97A	2.10	3 of 3
Y31E/Y97W	0.92	3 of 3
H98P/L102T/S103N	no signal	0 of 3
Q27N/K36L	4.33	2 of 3
V29W/A57R/P101Y	3.98	2 of 3
S25H/E32I/A57I	3.54	1 of 3
S26T/Q96C/H98L	3.38	1 of 3
K24Q/S38R/S58D	2.65	2 of 3
K36T/V39P	4.69	2 of 3
N35R/S58A/L102W	no signal	0 of 3
K24T/S33A/R99T	1.74	2 of 3
L100K/L102I	0.83	3 of 3
E32P/W56Y/R60M	2.92	3 of 3
L30V/A57R/L100N	no signal	0 of 3
S26A/A57N/L102R	no signal	0 of 3
S26T/Q27G/V39W	no signal	0 of 3
R34F/V39R/L100S	4.06	2 of 3
S33L/Y97S/L100W	1.49	3 of 3
S28L/R34Y/W56M	1.54	3 of 3
T59I/Q95F	no signal	0 of 3
S28A/H98W/S103D	2.12	2 of 3
R34D/S62T/P101I	no signal	0 of 3
V39W/P101V	3.50	2 of 3
Q96E/L102G	no signal	0 of 3
Q96F/P101Q/L102Q	no signal	0 of 3
S25G/S38G/L100M	no signal	0 of 3
Q95E/Q96R/P101C	no signal	0 of 3
S25D/N37K/E61I	1.22	3 of 3
S28M/V29E/T59Y	1.69	3 of 3
L30T/S33Q/A40I	4.29	2 of 3
L30K/W56H/Q95C	3.15	3 of 3
H98W/R99I/P101K	5.26	1 of 3
V29T/R34P/Q95G	2.88	2 of 3
A40H/R99M/S103H	4.77	2 of 3
A40Q/E61Y/S103Q	no signal	0 of 3
S25Y/S26G/S58A	3.03	1 of 3
S26M/S38Y/Q96S	3.91	3 of 3
Y31L/S38G/S62I	1.95	3 of 3
S25G/A40S/E61G	no signal	0 of 3
R60T/L100N	3.63	3 of 3
K24M/K36W/Q96V	2.87	3 of 3
S25Q/S38Y	2.82	3 of 3
L30C/E61Y/Y97G	3.74	1 of 3
L30Y/V39G/Q96S	4.58	1 of 3
E32N/W56N	-0.11	3 of 3
K36S/Q96G/R99C	no signal	0 of 3
S26N/R34W/Q95I	no signal	0 of 3
K36C/E61A/Y97I	0.50	3 of 3
S25M/L30A/T59E	3.27	1 of 3
V39L/T59M/R60T	4.04	2 of 3
S26Y/E32K/R34A	2.21	3 of 3
V39R/E61Q/S103Y	no signal	0 of 3
Q27N/H98G/S103E	1.57	3 of 3
Y31T/E32M/R34D	0.48	3 of 3
K24R/R99M/P101V	no signal	0 of 3

Repeated from above, the 8 best binders with a signal in all replicates:

changes	mean, log10 nM	seen in
E32N/W56N	-0.11	3 of 3
Y31T/E32M/R34D	0.48	3 of 3
K36C/E61A/Y97I	0.50	3 of 3
L100K/L102I	0.83	3 of 3
Y31E/Y97W	0.92	3 of 3
S25D/N37K/E61I	1.22	3 of 3
S33L/Y97S/L100W	1.49	3 of 3
S28L/R34Y/W56M	1.54	3 of 3

Three control strains display no target. For library AAYL50, 18% of the pairings with them gave a signal, with a median of 4.19 and one signal in twenty below 2.99, so weak values seen in few replicates may be background. Parent in this assay: reference entry 0.65, copy in this library 1.68.